target: DPP-IV from porcine kidney (Sus scrofa, UniProt P22411); experiment: Measurement of the DPP-IV activity (fluorimetric H-Ala-Pro-AFC conversion); conditions: DPP-IV 1 mU/ml; substrate H-Ala-Pro-AFC 15 μM; Tris/HCl 40 mM, pH 7.4; room temperature; tested form: bistrifluoroacetate
Procedure: The activity of the compounds was assayed as follows:
Measurement of the DPP-IV activity:
DPP-IV from porcine kidney (Sigma, Munich)
H-Ala-Pro-AFC (Bachem, Weil am Rhein)
DPP-IV (1 mU/ml, final concentration)
H-Ala-Pro-AFC (15 μM, final concentration) in Tris/HCl (40 mM, pH 7.4), total volume 0.2 ml
The reaction was carried out at room temperature for various times (typically 10 min) and stopped at the end of the reaction by adding 20 μl of ZnCl2(1M). The H-Ala-Pro-AFC conversion was determined fluorimetrically by measuring the emission at 535 nm after excitation at 405 nm. When inhibitors were added, the added buffer volume was adapted so that a total volume of 200 μl was maintained for the assay mixture.
IC50 values for inhibitors were determined by varying the inhibitor concentrations with the stated substrate concentration of 15 μM. Ki and Km values were found by appropriate variation of substrate concentration and inhibitor concentration as described (Dixon, M. and Webb, E. C. (1979) Enzymes, third edition, pp. 47–206, Academic Press). The values for Km, IC50 and Ki were calculated using a commercially available software package (Leatherbarrow, R. J. (1992) GraFit Version 3.0, Erithacus Software Ltd. Staines, U.K.).

The chains behind the UniProt entries cited, without tags or fusion partners.
UniProt P22411, whole entry: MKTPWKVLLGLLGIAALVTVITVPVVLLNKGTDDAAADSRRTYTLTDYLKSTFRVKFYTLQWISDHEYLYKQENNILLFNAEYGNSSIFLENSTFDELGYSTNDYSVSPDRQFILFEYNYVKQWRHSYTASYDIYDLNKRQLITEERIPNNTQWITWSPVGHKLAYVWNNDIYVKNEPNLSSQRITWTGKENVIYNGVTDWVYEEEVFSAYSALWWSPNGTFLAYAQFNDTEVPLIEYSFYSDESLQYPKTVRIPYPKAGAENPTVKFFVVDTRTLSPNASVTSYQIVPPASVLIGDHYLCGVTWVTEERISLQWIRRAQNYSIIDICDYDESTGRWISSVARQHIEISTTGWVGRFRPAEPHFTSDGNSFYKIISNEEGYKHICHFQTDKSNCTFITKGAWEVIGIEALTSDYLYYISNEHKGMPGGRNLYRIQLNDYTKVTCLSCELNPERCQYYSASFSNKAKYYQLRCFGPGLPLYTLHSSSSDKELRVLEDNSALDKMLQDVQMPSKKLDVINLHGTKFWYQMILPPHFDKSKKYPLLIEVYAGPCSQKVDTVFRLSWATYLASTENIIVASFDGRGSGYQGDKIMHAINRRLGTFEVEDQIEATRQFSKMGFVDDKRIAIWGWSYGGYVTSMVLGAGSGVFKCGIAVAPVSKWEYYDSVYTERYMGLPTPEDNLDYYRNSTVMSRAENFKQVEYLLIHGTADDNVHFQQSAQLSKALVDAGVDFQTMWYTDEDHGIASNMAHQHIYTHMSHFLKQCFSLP

| SMILES | IC50 |
| --- | --- |
| N#C[C@@H]1CS[C@H]2C[C@](N)(C3CCNCC3)C(=O)N12 | 300 nM |
| N#C[C@@H]1CS[C@H]2C[C@](N)(CC3CCNCC3)C(=O)N12 | 500 nM |

same assay, conditions: DPP-IV 1 mU/ml; substrate H-Ala-Pro-AFC 15 μM; Tris/HCl 40 mM, pH 7.4; room temperature; tested form: trifluoroacetate

| SMILES | IC50 |
| --- | --- |
| N#C[C@@H]1CS[C@H]2C[C@@H](N)C(=O)N12 | 47 nM |
| CC(C)C[C@@]1(N)C[C@@H]2SC[C@@H](C#N)N2C1=O | 18 nM |
| N#C[C@@H]1CS[C@H]2C[C@](N)(Cc3ccccc3)C(=O)N12.O=C(O)C(F)(F)F | 48 nM |
| N#C[C@@H]1CS[C@H]2C[C@@H](NC3CCCC3)C(=O)N12 | 2000 nM |
| N#C[C@@H]1CS[C@H]2C[C@](N)(CO)C(=O)N12 | 400 nM |

— patent publication US7008957B2, “Bicyclic cyanoheterocycles, process for their preparation and their use as medicaments” (Sanofi-Aventis Deutschland GmbH, priority 2003, dated 2006)
